Assay results published in paper PMC10993414, “Water Quality Monitoring with the Multiplexed Assay MitoOxTox for Mitochondrial Toxicity, Oxidative Stress Response, and Cytotoxicity in AREc32 Cells” (Environmental Science & Technology, 2024).

Test system: mitochondrial membrane potential (MMP) in AREc32 cells
Assay: Disruption of mitochondrial membrane potential (m-MPI red/green ratio), MitoOxTox
Settings: specificity ratio of MMP effect: IC10 (ImageXpress)/EC10 (eq 4)

## Cc1cc(O)ccc1Cl [4-Chloro-3-methylphenol]
  SRcytotoxicity: 11.9
